Like-named read-outs stand apart in the source and are kept apart here.
Legend:
Rat = format: in vivo, male and female rats of the Wistar strain
Experimental: (§1) Male and female mice of the dd Y strain, 4 weeks of age, as well as male and female rats of the Wistar strain, 7 weeks of age, were used in groups of ten. They were preliminarily raised for a week. Then, two compounds to be tested were dissolved or suspended in physiological saline and administered orally or subcutaneously. In the case of oral administration,the highest possible doses of 0.2 ml/10 g for mice and 2 ml/100 g for rats were used which both corresponded to 5,000 mg/kg. In the case of subcutaneous administration, the doses were reduced to 1/2. […] The animals that died during this period of observation were subjected to postmortem examination.

Mouse = format: in vivo, Male and female mice of the dd Y strain
Experimental: as §1

Solubility = format: physicochemical

Substance	LD50 (Rat; rat, in vivo, po, 168 h)	LD50 (Rat; rat, in vivo, sc, 168 h)	LD50 (Mouse; mouse, in vivo, po, 168 h)	LD50 (Mouse; mouse, in vivo, sc, 168 h)	LD50 (Rat; Rat, oral, 7 days observation)	LD50 (Rat; Rat, subcutaneous, 7 days observation)	LD50 (Mouse; Mouse, oral, 7 days observation)	LD50 (Mouse; Mouse, subcutaneous, 7 days observation)	solubility in organic solvents (Solubility; absolute ethanol, benzene, etc.)	solubility in water (Solubility; water)
inositol hexasulfate aluminum salt	> 5,000 mg/kg	> 2,500 mg/kg	> 5,000 mg/kg	> 2,500 mg/kg	–	–	–	–	–	–
inositol hexasulfate sodium aluminum salt	–	–	–	–	> 5,000 mg/kg	> 2,500 mg/kg	> 5,000 mg/kg	> 2,500 mg/kg	very slightly soluble	partially soluble
